Source: article PMC8470483, “Bidirectional Influences of Cranberry on the Pharmacokinetics and Pharmacodynamics of Warfarin with Mechanism Elucidation” (Nutrients, 2021)

By UniProt entry, the sequences of proteins in these tests, tags left out.
UniProt P05177, whole entry: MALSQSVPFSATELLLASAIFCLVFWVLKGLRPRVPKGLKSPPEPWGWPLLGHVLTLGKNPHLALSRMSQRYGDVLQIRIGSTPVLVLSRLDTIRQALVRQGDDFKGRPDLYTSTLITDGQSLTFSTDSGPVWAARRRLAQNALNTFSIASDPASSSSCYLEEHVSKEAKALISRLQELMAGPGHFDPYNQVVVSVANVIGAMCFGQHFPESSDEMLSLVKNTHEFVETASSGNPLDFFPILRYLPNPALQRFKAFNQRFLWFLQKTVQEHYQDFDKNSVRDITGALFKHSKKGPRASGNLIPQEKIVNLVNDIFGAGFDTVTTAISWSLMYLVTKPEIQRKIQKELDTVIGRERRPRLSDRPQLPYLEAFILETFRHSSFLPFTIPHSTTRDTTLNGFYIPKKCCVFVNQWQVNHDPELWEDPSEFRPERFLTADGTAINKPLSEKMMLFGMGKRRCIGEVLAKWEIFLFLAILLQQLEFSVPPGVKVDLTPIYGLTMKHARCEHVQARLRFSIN

Target: T1, CYP1A2 (Homo sapiens, UniProt P05177)
T1 construct: purchased
Assay: Vivid CYP450 screening kit, CYP1A2 activity
Assay type: biochemical
Details: positive control, 3 μM, in blank serum

## O=c1cc(-c2ccccc2)oc2c1ccc1ccccc12 [ANF, α-naphthoflavone]
  Decrease of CYP1A2 activity: 31%
